# According to PubChem BioAssay AID2555 (Johns Hopkins Ion Channel Center, 2010):
# Only a part is listed here, and it is no random draw. The source made the active and inactive calls.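 How the source made its calls: active means primary screen hit whose calcium fluorescence ratio, in both repeats, exceeds the weak agonist control mean by 3 SD; inactive means the rest.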
# Test system: TRPC4 beta (transient receptor potential cation channel C4), mouse
# Test: potentiation of DAMGO EC20 TRPC4 response – cell-based, Fluo-4, HEK293 TRPC4beta/mu-opioid, confirmation (AID 2555)
# Details: DAMGO EC20, Fluo-4 calcium flux, at 10 µM; stronger effect = higher value
row,Compound,potentiation
1,CCN(CC)CCCOC(=O)C(O)(c1ccccc1)c1ccccc1,active: 14%
2,CN(C)CCOC(=O)C(O)(c1ccccc1)C1CCCC1 (stereo not drawn),inactive
3,CN(C)C1(CNC(=O)c2ccc(Cl)c(S(N)(=O)=O)c2)CCCCC1,inactive
